Target: Platelet rich plasma, PRP (Canis lupus familiaris, UniProt A0A8I3N5G5+A0A8I3PMU9)
Test: Inhibition of platelet aggregation, PRP/ADP
Format: cell-based
Conditions: dog platelet rich plasma, 2 μM ADP, peptide added 3 min. prior to agonist; read-out: Antiaggregatory Activity IC50, μM PRP/ADP
Method: Blood was collected (citrated to prevent coagulation) from, naive, adult mongrel dogs. Platelet rich plasma, PRP, was prepared by centrifugation at 150×g for 10 min. at room temperature. Washed platelets were prepared by centrifuging PRP at 800×g for 10 min. The cell pellet thus obtained was washed twice in Tyrode's buffer (pH 6.5) without Ca^2+ and resuspended in Tyrode's buffer (pH 7.4) containing 1.8 mM Ca^2+ at […]. Peptides were added 3 min. prior to the agonist in all assays of platelet aggregation. Final agonist concentrations were 0.1 unit/ml thrombin and 2 μM ADP (Sigma). Aggregation was monitored in a Chrono-Log Lumi-Aggregometer. Light transmittance 5 min. after addition of the agonist was used to calculate percent aggregation according to the formula % aggregation=[(90-CR).div.(90-10)]×100, where CR is the chart reading, 90 is the baseline, and 10 is the PRP blank reading. IC50 's were determined by plotting [% inhibition of aggregation] vs. [concentration of peptide]. Peptides were assayed at 200 μM and diluted sequentially by a factor of 2 to establish a suitable dose response curve.

Protein sequences, listed by entry. Tags and fused reporters are not part of them. Residues count along the entry.
UniProt A0A8I3N5G5, 1-1047: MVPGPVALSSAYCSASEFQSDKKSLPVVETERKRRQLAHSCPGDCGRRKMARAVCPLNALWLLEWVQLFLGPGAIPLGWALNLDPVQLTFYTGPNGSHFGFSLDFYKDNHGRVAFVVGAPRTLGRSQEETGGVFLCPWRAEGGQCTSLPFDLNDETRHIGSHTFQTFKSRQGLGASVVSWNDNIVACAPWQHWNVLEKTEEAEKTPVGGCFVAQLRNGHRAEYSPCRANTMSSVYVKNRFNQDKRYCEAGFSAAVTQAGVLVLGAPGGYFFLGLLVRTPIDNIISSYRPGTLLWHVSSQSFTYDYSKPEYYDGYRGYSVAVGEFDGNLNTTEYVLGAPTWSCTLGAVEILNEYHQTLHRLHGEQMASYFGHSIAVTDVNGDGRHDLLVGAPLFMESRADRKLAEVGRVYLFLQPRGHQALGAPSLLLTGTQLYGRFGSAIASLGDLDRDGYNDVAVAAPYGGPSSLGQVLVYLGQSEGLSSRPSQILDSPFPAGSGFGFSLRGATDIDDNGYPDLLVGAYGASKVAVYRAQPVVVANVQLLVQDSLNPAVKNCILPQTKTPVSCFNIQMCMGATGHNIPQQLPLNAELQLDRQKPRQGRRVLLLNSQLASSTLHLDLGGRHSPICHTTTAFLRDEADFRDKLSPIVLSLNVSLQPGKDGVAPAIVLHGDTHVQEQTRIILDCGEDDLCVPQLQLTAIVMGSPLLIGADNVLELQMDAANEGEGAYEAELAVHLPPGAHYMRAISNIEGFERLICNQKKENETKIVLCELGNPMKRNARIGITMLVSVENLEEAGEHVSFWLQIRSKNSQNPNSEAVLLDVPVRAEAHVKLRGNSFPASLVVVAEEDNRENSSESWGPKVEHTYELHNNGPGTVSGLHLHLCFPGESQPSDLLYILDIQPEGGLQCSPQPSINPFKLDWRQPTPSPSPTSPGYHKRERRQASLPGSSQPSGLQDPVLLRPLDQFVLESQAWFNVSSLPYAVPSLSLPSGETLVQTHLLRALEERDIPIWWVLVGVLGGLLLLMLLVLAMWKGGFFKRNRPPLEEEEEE
UniProt A0A8I3PMU9, 1-919: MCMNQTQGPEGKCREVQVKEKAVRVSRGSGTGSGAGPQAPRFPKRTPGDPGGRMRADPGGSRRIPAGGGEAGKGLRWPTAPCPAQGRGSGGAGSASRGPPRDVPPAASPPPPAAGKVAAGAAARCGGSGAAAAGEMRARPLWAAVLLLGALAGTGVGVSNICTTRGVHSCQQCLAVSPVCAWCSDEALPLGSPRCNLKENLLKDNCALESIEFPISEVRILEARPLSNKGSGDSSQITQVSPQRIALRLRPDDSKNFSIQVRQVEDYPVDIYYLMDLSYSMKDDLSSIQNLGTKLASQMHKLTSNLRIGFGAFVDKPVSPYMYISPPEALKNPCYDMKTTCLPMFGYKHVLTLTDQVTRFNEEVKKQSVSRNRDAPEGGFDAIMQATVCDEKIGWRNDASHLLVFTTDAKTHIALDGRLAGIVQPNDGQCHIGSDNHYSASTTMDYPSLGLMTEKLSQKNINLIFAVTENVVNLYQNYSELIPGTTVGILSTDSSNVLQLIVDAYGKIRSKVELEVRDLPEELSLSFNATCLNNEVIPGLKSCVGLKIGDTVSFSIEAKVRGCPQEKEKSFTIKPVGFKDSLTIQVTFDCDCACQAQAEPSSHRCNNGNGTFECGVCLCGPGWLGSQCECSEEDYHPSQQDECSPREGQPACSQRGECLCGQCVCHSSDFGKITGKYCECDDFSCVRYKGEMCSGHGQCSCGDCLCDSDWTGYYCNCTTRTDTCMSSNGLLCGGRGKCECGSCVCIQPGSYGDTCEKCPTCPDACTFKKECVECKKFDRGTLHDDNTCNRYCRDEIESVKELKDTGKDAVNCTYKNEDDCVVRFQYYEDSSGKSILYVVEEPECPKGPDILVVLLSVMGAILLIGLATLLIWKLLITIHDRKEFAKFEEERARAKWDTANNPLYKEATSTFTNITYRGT

Substance: N^α -Ac-Cyclo(S,S)Cys-MeArg-Gly-Asp-MeSer-Cys-NH2 [Example 6]
- IC50: 77 µM
